In ChEMBL document CHEMBL3994596, “Structural Basis for Potency and Promiscuity in Poly(ADP-ribose) Polymerase (PARP) and Tankyrase Inhibitors” (J Med Chem, 2017):
Values joined by “and” are separate entries in the source; they are usually repeats but may differ in a detail not shown here. Identical values can stand only once.

Chains of the proteins cited; added tags and fusions are not shown. Lines headed by an entry give the natural chain unless they say otherwise; changes in a name come on top.
UniProt P09874, whole entry: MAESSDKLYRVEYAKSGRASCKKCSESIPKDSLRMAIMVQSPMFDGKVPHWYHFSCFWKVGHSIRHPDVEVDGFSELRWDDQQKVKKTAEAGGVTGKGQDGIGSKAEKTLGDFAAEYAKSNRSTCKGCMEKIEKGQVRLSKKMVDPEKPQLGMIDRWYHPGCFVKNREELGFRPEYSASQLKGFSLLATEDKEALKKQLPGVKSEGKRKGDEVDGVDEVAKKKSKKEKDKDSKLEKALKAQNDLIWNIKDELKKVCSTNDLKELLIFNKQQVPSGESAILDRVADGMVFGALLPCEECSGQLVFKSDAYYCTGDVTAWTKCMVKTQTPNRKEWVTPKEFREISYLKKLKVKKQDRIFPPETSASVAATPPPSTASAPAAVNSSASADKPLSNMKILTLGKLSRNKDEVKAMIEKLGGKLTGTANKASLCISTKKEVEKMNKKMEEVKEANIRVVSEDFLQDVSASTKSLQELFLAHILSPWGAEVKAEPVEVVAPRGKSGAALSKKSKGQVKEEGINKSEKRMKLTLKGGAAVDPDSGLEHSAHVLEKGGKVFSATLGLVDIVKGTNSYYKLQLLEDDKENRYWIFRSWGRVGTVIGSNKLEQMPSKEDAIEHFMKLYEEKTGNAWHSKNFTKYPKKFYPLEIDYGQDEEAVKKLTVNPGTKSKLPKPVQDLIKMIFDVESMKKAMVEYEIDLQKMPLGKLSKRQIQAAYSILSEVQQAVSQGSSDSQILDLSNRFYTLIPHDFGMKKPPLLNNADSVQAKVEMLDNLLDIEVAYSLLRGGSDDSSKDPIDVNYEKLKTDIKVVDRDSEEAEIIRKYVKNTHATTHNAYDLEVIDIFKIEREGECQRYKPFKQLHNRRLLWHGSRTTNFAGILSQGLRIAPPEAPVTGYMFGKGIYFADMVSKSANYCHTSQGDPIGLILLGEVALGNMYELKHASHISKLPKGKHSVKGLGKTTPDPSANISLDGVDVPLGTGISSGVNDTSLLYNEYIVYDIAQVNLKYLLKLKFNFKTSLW
UniProt Q460N5, whole entry: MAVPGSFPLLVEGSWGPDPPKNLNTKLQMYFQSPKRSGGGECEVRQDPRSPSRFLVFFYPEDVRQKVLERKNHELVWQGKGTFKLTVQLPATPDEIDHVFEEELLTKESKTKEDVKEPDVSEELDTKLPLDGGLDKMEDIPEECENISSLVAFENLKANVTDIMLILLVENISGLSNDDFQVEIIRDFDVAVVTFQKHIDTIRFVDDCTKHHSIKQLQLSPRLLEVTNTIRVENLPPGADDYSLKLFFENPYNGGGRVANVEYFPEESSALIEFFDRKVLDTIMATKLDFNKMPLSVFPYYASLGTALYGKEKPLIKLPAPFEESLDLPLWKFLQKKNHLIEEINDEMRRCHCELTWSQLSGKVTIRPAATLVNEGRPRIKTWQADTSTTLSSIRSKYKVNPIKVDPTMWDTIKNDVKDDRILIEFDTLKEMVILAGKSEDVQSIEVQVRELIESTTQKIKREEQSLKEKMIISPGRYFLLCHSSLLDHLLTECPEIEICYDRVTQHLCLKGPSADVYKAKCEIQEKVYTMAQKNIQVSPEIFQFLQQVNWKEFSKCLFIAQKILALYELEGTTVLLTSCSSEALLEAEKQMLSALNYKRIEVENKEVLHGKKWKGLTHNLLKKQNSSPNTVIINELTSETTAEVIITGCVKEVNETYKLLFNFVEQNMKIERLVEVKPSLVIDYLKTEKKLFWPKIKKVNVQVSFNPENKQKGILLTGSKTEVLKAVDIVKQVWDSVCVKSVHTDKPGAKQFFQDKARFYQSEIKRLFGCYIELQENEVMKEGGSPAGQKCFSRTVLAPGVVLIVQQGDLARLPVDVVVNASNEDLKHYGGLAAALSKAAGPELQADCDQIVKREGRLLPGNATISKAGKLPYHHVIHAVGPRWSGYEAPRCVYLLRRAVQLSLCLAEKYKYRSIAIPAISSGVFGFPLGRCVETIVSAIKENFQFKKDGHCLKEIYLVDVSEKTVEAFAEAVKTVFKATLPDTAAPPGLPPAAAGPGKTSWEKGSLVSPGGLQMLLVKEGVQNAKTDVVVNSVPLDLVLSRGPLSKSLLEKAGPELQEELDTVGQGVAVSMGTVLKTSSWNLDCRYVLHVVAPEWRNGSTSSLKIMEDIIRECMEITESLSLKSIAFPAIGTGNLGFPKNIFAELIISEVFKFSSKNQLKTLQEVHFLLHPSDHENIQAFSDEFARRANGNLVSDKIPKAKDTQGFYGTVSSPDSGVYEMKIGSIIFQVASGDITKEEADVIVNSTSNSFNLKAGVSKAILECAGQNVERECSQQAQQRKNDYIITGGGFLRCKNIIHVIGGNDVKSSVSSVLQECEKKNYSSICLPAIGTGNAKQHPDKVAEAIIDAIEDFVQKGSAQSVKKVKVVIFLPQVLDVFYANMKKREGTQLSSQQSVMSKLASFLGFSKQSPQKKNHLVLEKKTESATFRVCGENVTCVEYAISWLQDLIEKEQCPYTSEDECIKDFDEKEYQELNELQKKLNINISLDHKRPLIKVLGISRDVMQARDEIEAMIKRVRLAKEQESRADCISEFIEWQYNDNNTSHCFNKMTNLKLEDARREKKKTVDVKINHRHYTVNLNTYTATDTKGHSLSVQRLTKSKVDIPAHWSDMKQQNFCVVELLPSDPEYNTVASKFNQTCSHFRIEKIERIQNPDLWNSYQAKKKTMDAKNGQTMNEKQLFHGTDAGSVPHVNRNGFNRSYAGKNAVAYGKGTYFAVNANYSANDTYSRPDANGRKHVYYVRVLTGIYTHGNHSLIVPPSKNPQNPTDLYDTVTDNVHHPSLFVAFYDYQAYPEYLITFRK
UniProt Q9UGN5: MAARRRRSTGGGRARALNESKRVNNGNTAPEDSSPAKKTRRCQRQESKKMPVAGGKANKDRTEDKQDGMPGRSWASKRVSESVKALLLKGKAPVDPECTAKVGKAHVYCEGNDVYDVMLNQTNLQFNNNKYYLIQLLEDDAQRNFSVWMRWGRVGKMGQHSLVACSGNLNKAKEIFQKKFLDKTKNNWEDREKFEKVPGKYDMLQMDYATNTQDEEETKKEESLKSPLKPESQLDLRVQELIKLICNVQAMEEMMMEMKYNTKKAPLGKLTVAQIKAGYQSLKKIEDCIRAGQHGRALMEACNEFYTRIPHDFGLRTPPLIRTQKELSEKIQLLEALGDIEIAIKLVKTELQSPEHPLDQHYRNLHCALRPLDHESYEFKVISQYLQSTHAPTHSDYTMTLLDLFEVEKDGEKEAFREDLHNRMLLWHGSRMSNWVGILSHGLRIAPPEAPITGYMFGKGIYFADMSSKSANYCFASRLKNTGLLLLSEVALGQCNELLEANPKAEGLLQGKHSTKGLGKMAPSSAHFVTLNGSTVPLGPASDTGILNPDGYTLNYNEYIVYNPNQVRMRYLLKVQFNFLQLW
UniProt Q9UKK3: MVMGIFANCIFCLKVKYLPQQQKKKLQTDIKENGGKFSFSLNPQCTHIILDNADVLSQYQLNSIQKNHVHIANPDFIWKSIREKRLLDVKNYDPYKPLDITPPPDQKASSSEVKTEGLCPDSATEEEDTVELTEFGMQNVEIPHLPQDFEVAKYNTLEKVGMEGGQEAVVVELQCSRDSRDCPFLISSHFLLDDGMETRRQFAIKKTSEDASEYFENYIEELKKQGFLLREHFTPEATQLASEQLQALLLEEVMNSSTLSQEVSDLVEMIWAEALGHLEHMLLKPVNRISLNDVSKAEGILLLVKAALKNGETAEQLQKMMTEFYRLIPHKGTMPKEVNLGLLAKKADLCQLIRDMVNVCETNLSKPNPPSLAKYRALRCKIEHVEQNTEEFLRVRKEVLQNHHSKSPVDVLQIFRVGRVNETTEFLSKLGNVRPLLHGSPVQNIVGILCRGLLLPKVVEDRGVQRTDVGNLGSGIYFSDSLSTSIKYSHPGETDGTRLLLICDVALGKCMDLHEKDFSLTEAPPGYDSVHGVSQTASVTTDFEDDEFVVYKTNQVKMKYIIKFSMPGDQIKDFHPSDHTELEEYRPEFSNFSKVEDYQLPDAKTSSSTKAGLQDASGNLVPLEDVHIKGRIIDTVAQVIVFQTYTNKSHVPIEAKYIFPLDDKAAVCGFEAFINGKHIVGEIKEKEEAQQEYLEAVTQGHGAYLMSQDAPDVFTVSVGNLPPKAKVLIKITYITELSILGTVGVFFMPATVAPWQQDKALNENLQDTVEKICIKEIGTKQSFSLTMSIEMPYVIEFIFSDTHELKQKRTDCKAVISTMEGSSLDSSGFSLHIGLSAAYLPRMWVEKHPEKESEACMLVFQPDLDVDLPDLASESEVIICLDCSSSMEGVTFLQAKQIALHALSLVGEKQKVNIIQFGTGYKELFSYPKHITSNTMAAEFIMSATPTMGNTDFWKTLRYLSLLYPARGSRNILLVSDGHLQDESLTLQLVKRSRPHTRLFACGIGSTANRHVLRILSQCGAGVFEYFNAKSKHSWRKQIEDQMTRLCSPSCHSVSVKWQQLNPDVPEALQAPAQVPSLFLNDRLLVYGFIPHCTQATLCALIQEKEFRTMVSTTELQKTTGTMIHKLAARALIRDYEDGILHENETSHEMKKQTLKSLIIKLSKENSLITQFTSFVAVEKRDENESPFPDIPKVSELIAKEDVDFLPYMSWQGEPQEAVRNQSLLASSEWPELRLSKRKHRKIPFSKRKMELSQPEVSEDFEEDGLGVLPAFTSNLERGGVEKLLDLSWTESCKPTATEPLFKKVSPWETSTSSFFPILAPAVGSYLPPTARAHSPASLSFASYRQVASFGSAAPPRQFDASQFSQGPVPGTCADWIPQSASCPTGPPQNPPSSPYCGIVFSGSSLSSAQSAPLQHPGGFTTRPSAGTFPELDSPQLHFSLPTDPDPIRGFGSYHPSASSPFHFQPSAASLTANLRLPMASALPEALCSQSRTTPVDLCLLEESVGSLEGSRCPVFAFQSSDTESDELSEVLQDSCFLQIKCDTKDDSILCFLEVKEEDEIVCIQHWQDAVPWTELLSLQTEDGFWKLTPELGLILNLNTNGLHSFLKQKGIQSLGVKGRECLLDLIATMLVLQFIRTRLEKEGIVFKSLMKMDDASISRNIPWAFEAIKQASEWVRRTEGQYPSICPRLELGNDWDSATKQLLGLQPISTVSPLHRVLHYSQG

Tests used:
[1] = molecular target: T1, Poly [ADP-ribose] polymerase tankyrase-1 (Homo sapiens, UniProt O95271)
T1 sequence (O95271 whole entry): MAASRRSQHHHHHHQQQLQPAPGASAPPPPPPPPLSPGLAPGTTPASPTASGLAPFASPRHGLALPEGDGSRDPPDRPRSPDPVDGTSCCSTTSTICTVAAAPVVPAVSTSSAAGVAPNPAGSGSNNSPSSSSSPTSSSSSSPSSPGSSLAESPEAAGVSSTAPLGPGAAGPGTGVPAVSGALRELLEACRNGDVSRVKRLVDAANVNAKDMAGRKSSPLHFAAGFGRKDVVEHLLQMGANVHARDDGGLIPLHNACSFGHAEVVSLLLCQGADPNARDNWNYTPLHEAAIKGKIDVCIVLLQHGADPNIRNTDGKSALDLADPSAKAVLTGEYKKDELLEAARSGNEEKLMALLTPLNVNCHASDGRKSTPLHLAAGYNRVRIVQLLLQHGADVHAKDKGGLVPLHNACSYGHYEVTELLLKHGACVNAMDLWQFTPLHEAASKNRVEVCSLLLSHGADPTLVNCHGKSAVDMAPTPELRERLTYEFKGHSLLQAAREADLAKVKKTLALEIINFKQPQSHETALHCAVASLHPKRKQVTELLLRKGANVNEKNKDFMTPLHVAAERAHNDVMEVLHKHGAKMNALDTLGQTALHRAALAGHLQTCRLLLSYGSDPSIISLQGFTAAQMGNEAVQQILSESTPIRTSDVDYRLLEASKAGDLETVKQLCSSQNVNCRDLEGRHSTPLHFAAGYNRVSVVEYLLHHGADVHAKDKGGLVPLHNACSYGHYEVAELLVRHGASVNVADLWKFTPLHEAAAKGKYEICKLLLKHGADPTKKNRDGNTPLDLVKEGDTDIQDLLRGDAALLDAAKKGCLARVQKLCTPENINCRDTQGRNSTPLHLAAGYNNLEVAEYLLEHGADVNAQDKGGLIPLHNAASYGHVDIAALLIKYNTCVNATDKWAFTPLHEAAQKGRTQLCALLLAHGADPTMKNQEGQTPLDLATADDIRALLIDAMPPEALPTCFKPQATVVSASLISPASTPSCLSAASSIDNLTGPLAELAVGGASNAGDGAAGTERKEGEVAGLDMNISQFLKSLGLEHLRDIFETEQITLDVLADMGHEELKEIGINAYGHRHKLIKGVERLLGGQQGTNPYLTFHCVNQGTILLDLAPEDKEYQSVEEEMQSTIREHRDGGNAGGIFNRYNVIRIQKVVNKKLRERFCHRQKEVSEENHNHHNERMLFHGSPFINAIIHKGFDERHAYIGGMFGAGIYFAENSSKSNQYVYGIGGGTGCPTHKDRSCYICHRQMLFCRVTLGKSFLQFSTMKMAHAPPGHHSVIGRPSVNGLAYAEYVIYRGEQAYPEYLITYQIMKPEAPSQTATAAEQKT

[2] = molecular target: Poly [ADP-ribose] polymerase 1 (Homo sapiens, UniProt P09874)
[3] = molecular target: T2, Protein mono-ADP-ribosyltransferase PARP3 (Homo sapiens, UniProt Q9Y6F1)
T2 sequence (Q9Y6F1 whole entry): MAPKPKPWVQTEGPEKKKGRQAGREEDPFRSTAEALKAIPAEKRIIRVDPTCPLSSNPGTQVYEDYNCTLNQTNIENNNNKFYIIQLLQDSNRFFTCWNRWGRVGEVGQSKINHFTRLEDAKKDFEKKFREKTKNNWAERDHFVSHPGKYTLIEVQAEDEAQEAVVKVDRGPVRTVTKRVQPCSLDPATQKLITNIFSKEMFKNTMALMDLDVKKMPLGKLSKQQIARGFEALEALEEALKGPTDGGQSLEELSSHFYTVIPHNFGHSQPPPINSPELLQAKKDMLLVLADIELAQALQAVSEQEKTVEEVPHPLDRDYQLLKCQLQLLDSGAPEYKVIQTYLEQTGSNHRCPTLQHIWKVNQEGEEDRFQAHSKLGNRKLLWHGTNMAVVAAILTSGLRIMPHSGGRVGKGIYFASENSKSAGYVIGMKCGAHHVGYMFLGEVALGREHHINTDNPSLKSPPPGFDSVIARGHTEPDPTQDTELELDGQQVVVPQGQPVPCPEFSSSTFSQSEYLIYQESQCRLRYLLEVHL

[4] = molecular target: Protein mono-ADP-ribosyltransferase PARP14 (Homo sapiens, UniProt Q460N5)
[5] = molecular target: T3, Poly [ADP-ribose] polymerase 2 (Homo sapiens, UniProt Q9UGN5)
[6] = molecular target: T3, Poly [ADP-ribose] polymerase 2; remark: listed apart in the source
[7] = molecular target: Protein mono-ADP-ribosyltransferase PARP4 (Homo sapiens, UniProt Q9UKK3)
[8] = molecular target: T4, Protein mono-ADP-ribosyltransferase PARP15 (Homo sapiens, UniProt Q460N3)
T4 sequence (Q460N3 whole entry): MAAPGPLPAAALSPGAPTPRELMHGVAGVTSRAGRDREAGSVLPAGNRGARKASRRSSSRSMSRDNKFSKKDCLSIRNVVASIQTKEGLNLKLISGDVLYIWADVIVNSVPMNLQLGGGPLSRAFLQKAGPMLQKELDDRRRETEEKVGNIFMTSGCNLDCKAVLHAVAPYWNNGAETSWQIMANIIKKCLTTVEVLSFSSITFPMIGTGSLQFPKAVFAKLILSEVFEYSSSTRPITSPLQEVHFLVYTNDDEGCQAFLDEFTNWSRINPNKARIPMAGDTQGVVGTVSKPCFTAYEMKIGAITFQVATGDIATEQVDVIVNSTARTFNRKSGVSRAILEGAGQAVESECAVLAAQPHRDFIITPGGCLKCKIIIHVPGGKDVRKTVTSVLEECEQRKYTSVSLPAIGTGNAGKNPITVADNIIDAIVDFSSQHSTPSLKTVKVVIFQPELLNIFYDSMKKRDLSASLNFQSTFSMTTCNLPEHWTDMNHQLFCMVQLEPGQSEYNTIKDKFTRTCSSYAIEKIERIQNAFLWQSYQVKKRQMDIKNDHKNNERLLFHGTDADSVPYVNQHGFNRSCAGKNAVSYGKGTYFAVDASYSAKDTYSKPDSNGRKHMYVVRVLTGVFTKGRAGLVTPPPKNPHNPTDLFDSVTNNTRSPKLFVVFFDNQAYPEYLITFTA

[9] = molecular target: T5, Protein mono-ADP-ribosyltransferase PARP10 (Homo sapiens, UniProt Q53GL7)
T5 sequence (Q53GL7 whole entry): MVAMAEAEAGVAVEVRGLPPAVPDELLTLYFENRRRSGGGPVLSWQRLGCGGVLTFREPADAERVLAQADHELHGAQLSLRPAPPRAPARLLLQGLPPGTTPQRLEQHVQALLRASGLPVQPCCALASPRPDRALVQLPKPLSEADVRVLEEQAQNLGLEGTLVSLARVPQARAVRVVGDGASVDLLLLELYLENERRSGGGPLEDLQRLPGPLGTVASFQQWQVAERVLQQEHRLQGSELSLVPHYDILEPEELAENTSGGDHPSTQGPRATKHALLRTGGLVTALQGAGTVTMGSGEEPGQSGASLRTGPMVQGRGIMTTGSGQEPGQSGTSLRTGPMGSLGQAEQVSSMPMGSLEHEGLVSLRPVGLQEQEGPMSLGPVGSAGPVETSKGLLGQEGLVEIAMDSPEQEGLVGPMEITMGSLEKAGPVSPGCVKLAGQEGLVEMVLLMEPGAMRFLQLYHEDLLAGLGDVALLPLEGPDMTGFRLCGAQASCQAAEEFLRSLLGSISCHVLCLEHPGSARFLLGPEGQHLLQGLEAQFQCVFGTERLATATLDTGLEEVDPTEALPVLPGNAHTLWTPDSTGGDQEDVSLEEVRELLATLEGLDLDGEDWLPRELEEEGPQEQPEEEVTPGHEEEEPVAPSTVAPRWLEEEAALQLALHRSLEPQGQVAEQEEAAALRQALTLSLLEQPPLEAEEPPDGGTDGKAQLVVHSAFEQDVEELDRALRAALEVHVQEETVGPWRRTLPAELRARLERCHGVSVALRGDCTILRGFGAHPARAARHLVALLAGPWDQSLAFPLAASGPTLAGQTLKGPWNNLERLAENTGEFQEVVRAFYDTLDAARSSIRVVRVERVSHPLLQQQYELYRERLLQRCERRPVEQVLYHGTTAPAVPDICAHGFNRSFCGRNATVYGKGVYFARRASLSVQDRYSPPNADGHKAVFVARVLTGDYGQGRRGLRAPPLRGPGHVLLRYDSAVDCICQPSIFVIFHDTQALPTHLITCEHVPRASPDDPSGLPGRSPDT

[10] = molecular target: T5, Protein mono-ADP-ribosyltransferase PARP10; remark: listed apart in the source
[11] = molecular target: T6, Protein mono-ADP-ribosyltransferase PARP12 (Homo sapiens, UniProt Q9H0J9)
T6 sequence (Q9H0J9 whole entry): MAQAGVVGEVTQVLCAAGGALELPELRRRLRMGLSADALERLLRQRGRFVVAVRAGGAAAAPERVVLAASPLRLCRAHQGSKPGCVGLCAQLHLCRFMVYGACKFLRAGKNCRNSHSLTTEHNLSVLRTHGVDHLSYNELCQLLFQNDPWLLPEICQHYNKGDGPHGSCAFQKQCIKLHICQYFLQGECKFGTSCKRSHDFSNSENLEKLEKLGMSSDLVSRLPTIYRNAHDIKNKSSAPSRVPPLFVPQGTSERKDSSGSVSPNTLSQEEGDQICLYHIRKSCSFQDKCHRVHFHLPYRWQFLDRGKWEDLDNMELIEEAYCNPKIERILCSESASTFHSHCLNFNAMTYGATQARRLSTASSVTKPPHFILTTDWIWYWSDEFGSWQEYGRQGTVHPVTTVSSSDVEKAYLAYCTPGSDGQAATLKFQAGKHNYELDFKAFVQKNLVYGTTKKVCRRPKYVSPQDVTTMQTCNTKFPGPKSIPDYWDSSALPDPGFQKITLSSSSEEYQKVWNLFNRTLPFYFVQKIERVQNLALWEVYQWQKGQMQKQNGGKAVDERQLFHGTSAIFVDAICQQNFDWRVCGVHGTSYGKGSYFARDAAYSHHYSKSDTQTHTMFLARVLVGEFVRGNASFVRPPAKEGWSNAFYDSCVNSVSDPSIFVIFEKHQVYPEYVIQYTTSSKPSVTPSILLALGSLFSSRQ

| Structure (SMILES) | IC50 [1] | IC50 [2] | IC50 [3] | IC50 [4] | IC50 [5] | IC50 [6] | IC50 [7] | IC50 [8] | IC50 [9] | IC50 [10] | IC50 [11] |
| --- | --- | --- | --- | --- | --- | --- | --- | --- | --- | --- | --- |
| O=C(COc1cccc2c(=O)[nH]ccc12)c1ccccc1 | 3.1 µM | 145 nM | 1300 nM | 5.7 µM | 1070 nM and 1000 nM |  |  |  |  |  |  |
| CN(C)CC(=O)Nc1ccc2[nH]c(=O)c3ccccc3c2c1 [PJ34] |  |  |  | 4.2 µM | 33.5 nM | 380 nM | 759 nM | 9 µM | 5.8 µM | 6.8 µM |  |
| CNCc1ccc(-c2[nH]c3cc(F)cc4c3c2CCNC4=O)cc1 [RUCAPARIB] |  |  |  |  |  |  |  | 32.6 µM | 0.57 µM | 2.31 µM | 6.65 µM |
| C[C@]1(c2nc3c(C(N)=O)cccc3[nH]2)CCCN1 [VELIPARIB] |  |  | 2140 nM and 2040 nM | 89 µM |  |  | 3500 nM |  |  |  | 59.4 µM |
